Experimental data reported in US11136295B2, “D-amphetamine compounds, compositions, and processes for making and using the same” (KemPharm, Inc., priority 2018, dated 2021).

How the values were obtained:
[1] = Intranasal pharmacokinetic study in rats (plasma amphetamine by LC-MS/MS); format: in vivo, rat; conditions: compared to AMP-CO2CH2-nicotinate(Et), FIG. 31
[2] = Oral pharmacokinetic study in rats (plasma amphetamine by LC-MS/MS); format: in vivo; conditions: d-amphetamine in plasma; rat, oral gavage, 5.6 μmol/kg; 6-hour time course
Protocol: Conjugates of d-amphetamine, and d-amphetamine sulfate or lisdexamfetamine dimesylate comparator compound were dissolved in an appropriate vehicle and administered in rats via oral gavage at doses of 5.6 μmol/kg. Whole blood samples were collected via retro-orbital bleeding at 0.25, 0.5, 1, 2, 4, and optionally at 3 and 6 hours postdose. Blood samples were centrifuged and the resulting plasma samples were collected for analysis of amphetamine concentrations by LC-MS/MS.

Substance | exposure to d-amphetamine after intranasal administration compared to the nicotinate analogue [1] | AUC0-4 hr [2] [ng·h/mL] | AUC0-6 hr [2] [ng·h/mL] | Cmax [2] [ng/mL] | Tmax [2] [h]
d-amphetamine-CO2CH2-isonicotinate ethyl ester [AMP-CO2CH2-isonicotinate(Et)] | decreases exposure to d-amphetamine | – | – | – | –
d-amphetamine-CO2CH2-isonicotinoyl-beta-alanine ethyl ester [AMP-CO2CH2-isonicotinoyl-β-Ala-OEt] | – | 103.2 | 148.7 | 39.8 | 2.1
